Broadly, the IC50 is the concentration that inhibits the measured activity by half.

Amino acid sequences for entries named in this document (tags omitted).
UniProt Q9UBT2, whole entry: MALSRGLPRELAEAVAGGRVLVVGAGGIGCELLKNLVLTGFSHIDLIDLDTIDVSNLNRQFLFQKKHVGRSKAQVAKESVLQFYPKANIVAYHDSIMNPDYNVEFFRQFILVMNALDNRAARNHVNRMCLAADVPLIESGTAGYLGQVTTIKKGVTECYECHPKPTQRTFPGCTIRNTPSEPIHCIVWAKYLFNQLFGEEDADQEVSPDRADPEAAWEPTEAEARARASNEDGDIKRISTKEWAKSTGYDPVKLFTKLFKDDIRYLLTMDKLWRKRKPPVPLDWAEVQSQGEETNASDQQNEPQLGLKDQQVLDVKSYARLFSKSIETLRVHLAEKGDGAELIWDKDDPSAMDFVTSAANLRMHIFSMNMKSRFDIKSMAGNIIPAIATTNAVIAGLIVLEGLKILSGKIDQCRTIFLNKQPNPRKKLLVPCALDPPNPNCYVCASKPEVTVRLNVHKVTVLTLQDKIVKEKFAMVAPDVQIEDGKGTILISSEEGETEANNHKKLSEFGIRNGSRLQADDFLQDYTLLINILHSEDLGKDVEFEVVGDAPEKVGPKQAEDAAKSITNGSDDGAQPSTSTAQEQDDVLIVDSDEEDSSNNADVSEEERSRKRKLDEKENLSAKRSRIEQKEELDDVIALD
UniProt Q9UBE0, whole entry partner: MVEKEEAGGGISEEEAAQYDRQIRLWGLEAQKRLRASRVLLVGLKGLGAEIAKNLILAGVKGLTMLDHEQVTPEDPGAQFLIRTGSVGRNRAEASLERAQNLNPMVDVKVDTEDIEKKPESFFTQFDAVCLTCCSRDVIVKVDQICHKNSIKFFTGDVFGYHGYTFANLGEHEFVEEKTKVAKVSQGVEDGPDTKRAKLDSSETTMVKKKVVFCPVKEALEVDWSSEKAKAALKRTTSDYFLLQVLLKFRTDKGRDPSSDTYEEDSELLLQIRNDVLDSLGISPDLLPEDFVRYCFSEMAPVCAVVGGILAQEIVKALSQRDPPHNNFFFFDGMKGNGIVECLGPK

A value given as a limit tells only on which side of the number the result lay.

These results are taken from US20230303584A1, “4,5,6,7-TETRAHYDROTHIENO[2,3-C]PYRIDINE SUMO INHIBITORS AND USES THEREOF” (SUVALENT THERAPEUTICS INC., priority 2020, published 2023).

For the first test, the target named is SAE1 (Homo sapiens (Human), UniProt Q9UBT2). Kind of test: SAE high throughput biochemical (HTRF) assay. Conditions: read-out: 15 min preincubation HTRF IC50 (uM) Ave, 100 µM ATP. As for the experimental part:
Assay buffer was prepared [50 mM HEPES, pH 7.5, 0.1% BSA and 10 mM MgCl2] as was the Stop Buffer [100 mM HEPES, pH 7.5, 0.05% Tween20, and 410 mM KF]. The 2x Reaction Buffer [80 nM SUMO-GST, 80 nM UBC9-His, 200 µM ATP and diluted in Assay Buffer] and Antibody Reaction Mix [13.34 nM anti-GST XL665, 1.66 nM anti-His EuK and Diluted in Stop Buffer] were also prepared. Compounds were dissolved at 200x in DMSO in a 384-well plate. Serial dilutions were performed in DMSO for each compound, and then each concentration was diluted another 50-fold in Assay Buffer, to 4x the final concentration. 2.5 µL of each concentration was transferred into its own well in a 384-well plate. SAE1 was then diluted to 4x in Assay Buffer, and 2.5 µL of 4x SAE1 was mixed into each compound-containing well. After incubating for 15 minutes at room temperature, 5 µL of 2x Reaction Buffer was mixed into every well. Then after another 45 minutes at room temperature, 10 µL of Antibody Reaction Mix was added and mixed into every well. This plate was then read on an HTRF-compatible plate reader after 2 hours at room temperature, and again after sitting at room temperature overnight. [Final Component Concentrations: SAE1: 12.5 nM; SUMO-GST: 40 nM; UBC9-His: 40 nM; Anti-GST-XL665: 6.67 nM; Anti-His-EuK: 0.83 nM; and ATP: 100 µM ] Alternatively, the compounds are tested at a single concentration of 25 micromolar and the percent of control is measured.
On the technique in general: TR-FRET usually uses a lanthanide donor and a delayed reading to cut background.
`C=CC(=O)N1Cc2sc(Cl)cc2C(c2ccccc2-c2cnccc2C(F)(F)F)C1` (single isomer, unassigned): the 50% inhibitory concentration (IC50) came out at 9.17 µM.
Same read-out and setting: the value for `C=CC(=O)N1Cc2sc(Cl)cc2C(c2ccccc2-c2cnoc2)C1` (centres unmarked) was 10.4 µM; that for `C=CC(=O)N1Cc2sccc2[C@H](c2ccccc2-c2cn(CC)nc2C(F)(F)F)C1` was 0.88 µM.
The same measure, in the same setting: the value for `C=CC(=O)N1Cc2sc(Cl)cc2C(c2ccsc2)C1` (centres unmarked) was 1.56 µM; that for `C=CC(=O)N1Cc2sc(Cl)cc2C(c2ccccc2-c2cn(Cc3cccnc3)nc2C(F)(F)F)C1` (centres unmarked) was 0.46 µM.
Still for that read-out and setting: to `C=CC(=O)N1Cc2sc(Cl)cc2C(c2ccccc2-c2cn(C)nc2C(F)(F)F)C1` (centres unmarked) belongs 0.32 µM; to `C=CC(=O)N1CC(c2ccccc2-c2cn(CC)nc2C(F)(F)F)c2cc(Cl)sc2C1C` (centres unmarked), 11.6 µM; to `C=CC(=O)N1Cc2sc(Cl)cc2C(c2ccccc2-c2cc(C)nn2C)C1` (centres unmarked), 1.15 µM.
As for `C=CC(=O)N1Cc2sc(Cl)cc2C(c2ccccc2-c2c[nH]nc2C(F)(F)F)C1` (centres unmarked), the IC50 came to 3 µM.
Still for that read-out and setting: the value for `C=CC(=O)N1Cc2sc(Cl)cc2C(c2ccccc2-c2ccnn2C)C1` (centres unmarked) was 1 µM; that for `C=CC(=O)N1Cc2sc(Cl)cc2C(c2ccccc2-c2cccnc2C)C1` (centres unmarked) was 3.04 µM; that for `C=CC(=O)N1Cc2sc(Cl)cc2C(c2ccccc2-c2cnsc2)C1` (centres unmarked) was 12.5 µM.
Same read-out and setting: the value for `C=CC(=O)N1Cc2sc(Cl)cc2C(c2ccccc2-c2cn(C3CC3)nc2C(F)(F)F)C1` (centres unmarked) was 0.61 µM; that for `C=CC(=O)N1Cc2sc(Cl)cc2[C@H](c2ccccc2-c2cn(CC)nc2C(=O)NC)C1` was more than 25 µM.
On the same count and under the same terms, the value for `C=CC(=O)N1Cc2sc(Cl)cc2C(c2ccccc2-c2cn(CC3CC3)nc2C(F)(F)F)C1` (centres unmarked) was 1.4 µM; that for `C=CC(=O)N1Cc2sc(Cl)cc2C(c2ccsc2-c2cn(C)nc2C)C1` (centres unmarked) was 12.6 µM.
For `C=CC(=O)N1Cc2sc(Cl)cc2C(c2cscc2Br)C1` (centres unmarked), the IC50 came out at 11.5 µM.
On the same count and under the same terms, to `C=CC(=O)N1Cc2sc(Cl)cc2C(c2ccccc2-c2cncnc2C(F)(F)F)C1` (single isomer, unassigned) [253] belongs 2.77 µM; to `CCn1cc(-c2ccccc2C2CN(C(=O)/C=C/CN(C)C)C(C)c3sc(Cl)cc32)c(C(F)(F)F)n1` (centres unmarked), 8.76 µM; to `C=CC(=O)N1Cc2sc(Cl)cc2C(c2ccccc2-c2cn(C)nc2C2CC2)C1` (centres unmarked), 1.06 µM.
Same read-out and setting: the value for `C=CC(=O)N1Cc2sc(Cl)cc2C(c2ccccc2-c2cccnc2CC)C1` (centres unmarked) was 5.68 µM.
Consider `C=CC(=O)N1Cc2sc(Cl)cc2C(c2ccccc2-c2cn(C(C)C)nc2C(F)(F)F)C1` (centres unmarked), for which the half-inhibitory concentration (IC50) stood at 0.39 µM.
`C=CC(=O)N1Cc2sc(Cl)cc2C(c2sccc2Br)C1` (centres unmarked): the 50% inhibitory concentration (IC50) was 2.8 µM.
`[2H]C1([2H])c2sc(Cl)cc2[C@H](c2ccccc2-c2cn(CC)nc2C(F)(F)F)CN1C(=O)/C=C/CN(C)C`: the half-inhibitory concentration (IC50) came to 1.3 µM.
On the same count and under the same terms, the value for `CCn1cc(-c2ccccc2C2c3cc(Cl)sc3CN(C(=O)/C=C/CN(C)C)C2C)c(C(F)(F)F)n1` (centres unmarked) was 3.57 µM; that for `C=CC(=O)N1Cc2sc(Cl)cc2C(c2ccccc2-c2cccnc2C(F)(F)F)C1` (single isomer, unassigned) was 1.28 µM.
With `C=CC(=O)N1Cc2sc(Cl)cc2C(c2ccccc2-c2cncnc2C(F)(F)F)C1` (single isomer, unassigned) [249], the IC50 came to 2.27 µM.
Same read-out and setting: to `C=CC(=O)N1Cc2sc(Cl)cc2C(c2ccccc2-c2cnn(C)c2C)C1` (centres unmarked) belongs 6.24 µM.
Consider `CN(C)C/C=C/C(=O)N1Cc2sc(Cl)cc2[C@H](c2ccccc2-c2cn(CCC#N)nc2C(F)(F)F)C1`, for which the IC50 turned out to be 1.18 µM.
With `C=C(F)C(=O)N1Cc2sc(Cl)cc2[C@H](c2ccccc2-c2cn(CC)nc2C(F)(F)F)C1`, the half-inhibitory concentration (IC50) is more than 25 µM.
With `C=CC(=O)N1Cc2sc(-c3ccccn3)cc2[C@H](c2ccccc2-c2cn(CC)nc2C(F)(F)F)C1`, the IC50 amounted to 3.17 µM.
The same measure, in the same setting: the value for `C=CC(=O)N1Cc2sc(Cl)cc2C(c2ccccc2-c2cn(C)nc2C)C1` (centres unmarked) was 0.41 µM.
Take `C=CC(=O)N1Cc2sc(Cl)cc2[C@H](c2ccccc2-c2cn(C3CN(C)C3)nc2C(F)(F)F)C1`: the IC50 was more than 25 µM.
With `C=CC(=O)N1Cc2sc(Cl)cc2[C@H](c2ccccc2-c2cn(-c3ccncc3)nc2C(F)(F)F)C1`, the IC50 is 0.91 µM.
For the compound `C=CC(=O)N1Cc2sc(Cl)cc2C(c2ccccc2-c2cccnc2OC)C1` (centres unmarked), the IC50 came out at 4.52 µM.
Regarding `CCn1cc(-c2ccccc2[C@@H]2CN(C(=O)/C=C/CN3CCC(O)C3)Cc3sc(Cl)cc32)c(C(F)(F)F)n1` (some centres unmarked), the IC50 came to 1.54 µM.
On the same count and under the same terms, the value for `C=CC(=O)N1Cc2sc(Cl)cc2[C@H](c2ccccc2-c2cnn(CC)c2C(F)(F)F)C1` was more than 25 µM; that for `CN(C)C/C=C/C(=O)N1Cc2sc(Cl)cc2[C@H](c2ccccc2-c2cn(Cc3ncno3)nc2C(F)(F)F)C1` was 1.7 µM.
Still for that read-out and setting: to `C=CC(=O)N1Cc2sc(Cl)cc2C(c2ccccc2-c2c(C)nn(C)c2C)C1` (centres unmarked) belongs 0.58 µM; to `C=CC(=O)N1Cc2sc(/C=C/C)cc2[C@H](c2ccccc2-c2cn(CC)nc2C(F)(F)F)C1`, 1.82 µM.

The same test, now with this note: single concentration 25 µM; 15 min preincubation.
As to `C=CC(=O)N1Cc2sc(Cl)cc2C(c2ccccc2-c2ccn(C)n2)C1` (centres unmarked), the “HTRF percent of control (POC) @ 25 µM” value amounted to 17.03 POC @ 25 µM.
The same measure, in the same setting: the value for `C=CC(=O)N1Cc2sc(Cl)cc2C(c2ccccc2-c2cnccc2C(F)(F)F)C1` (single isomer, unassigned) was 5.81 POC; that for `C=CC(=O)N1Cc2sc(Cl)cc2C(c2ccccc2-c2cc(C)ccn2)C1` (centres unmarked) was 55.54 POC @ 25 µM.
The same measure, in the same setting: the value for `C=CC(=O)N1Cc2sc(Cl)cc2C(c2ccccc2-c2cncc(C(F)(F)F)c2)C1` (centres unmarked) was 19.64 POC @ 25 µM; that for `C=CC(=O)N1Cc2sc(Cl)cc2C(c2ccccc2-c2ccccn2)C1` (centres unmarked) was 48.53 POC @ 25 µM.
The same measure, in the same setting: to `C=CC(=O)N1Cc2sc(Cl)cc2C(c2ccccc2-c2cnn(C)c2)C1` (centres unmarked) belongs 27.51 POC @ 25 µM.
For the compound `C=CC(=O)N1Cc2sc(Cl)cc2C(c2ccccc2-c2cccnc2Cl)C1` (centres unmarked), the “HTRF percent of control (POC) @ 25 µM” value was 13.84 POC @ 25 µM.
`C=CC(=O)N1Cc2sc(Cl)cc2C(c2ccccc2-c2cncc3ccccc23)C1` (centres unmarked): the “HTRF percent of control (POC) @ 25 µM” value came to 60.9 POC @ 25 µM.
On the same count and under the same terms, the value for `C=CC(=O)N1Cc2sc(Cl)cc2C(c2ccccc2-c2cc(C)nn2C)C1` (centres unmarked) was 0 POC.
For the compound `C=CC(=O)N1Cc2sc(Cl)cc2C(c2ccccc2-c2ccnn2C)C1` (centres unmarked), the “HTRF percent of control (POC) @ 25 µM” value was 10.61 POC.
Regarding `C=CC(=O)N1Cc2sc(Cl)cc2C(c2ccccc2-c2cc(C)cc(C)n2)C1` (centres unmarked), the “HTRF percent of control (POC) @ 25 µM” value is recorded as more than 100 POC @ 25 µM.
As to `C=CC(=O)N1Cc2sc(Cl)cc2C(c2ccccc2-c2ccncn2)C1` (centres unmarked), the “HTRF percent of control (POC) @ 25 µM” value is given as 68.77 POC @ 25 µM.
Same read-out and setting: the value for `C=CC(=O)N1Cc2sc(Cl)cc2C(c2ccccc2-c2nc(C)co2)C1` (centres unmarked) was 39.72 POC @ 25 µM.
As for `C=CC(=O)N1Cc2sc(Cl)cc2C(c2ccccc2-c2ccnc(C)n2)C1` (centres unmarked), the “HTRF percent of control (POC) @ 25 µM” value came to 62.81 POC @ 25 µM.
Turning to `C=CC(=O)N1Cc2sc(Cl)cc2C(c2ccccc2-c2cncnc2C(F)(F)F)C1` (single isomer, unassigned) [249], the “HTRF percent of control (POC) @ 25 µM” value stood at 4.68 POC.
Consider `C=CC(=O)N1Cc2sc(Cl)cc2C(c2ccccc2-c2cn(C)nn2)C1` (centres unmarked), for which the “HTRF percent of control (POC) @ 25 µM” value is listed as more than 100 POC @ 25 µM.
The same measure, in the same setting: to `C=CC(=O)N1Cc2sc(Cl)cc2C(c2ccccc2-c2cccnc2)C1` (centres unmarked) belongs 34.59 POC @ 25 µM; to `C=CC(=O)N1Cc2sc(Cl)cc2C(c2ccccc2-c2cccnc2OC)C1` (centres unmarked), 14.972 POC; to `C=CC(=O)N1Cc2sc(Cl)cc2C(c2ccccc2-c2cncnc2)C1` (centres unmarked), 7.19 POC @ 25 µM.
The same measure, in the same setting: the value for `C=CC(=O)N1Cc2sc(Cl)cc2C(c2ccccc2-c2c(C)nn(C)c2C)C1` (centres unmarked) was 4.57 POC.

The test is the same for the next values; noted with them: single concentration printed as 25 mM; 15 min preincubation.
As for `C=CC(=O)N1Cc2sc(Cl)cc2C(c2ccccc2-c2cn(C)nc2C2CC2)C1` (centres unmarked), the “HTRF percent of control (POC) @ 25 mM (so in the source)” value came to 13.76 POC.
Consider `C=CC(=O)N1Cc2sc(Cl)cc2C(c2ccccc2-c2ncn(C)n2)C1` (centres unmarked), for which the “HTRF percent of control (POC) @ 25 mM (so in the source)” value was found to be 88.81 POC @ 25 mM.
